Laboratory results published in patent US20070254882A1, “Sulfamide Derivatives and Pharmaceutical Composition for Upregulation of Lipid Metabolism Comprising Same” (CRYSTAL GENOMICS, INC., priority 2004, published 2007).

Chains of the proteins cited; added tags and fusions are not shown. Residues count along the entry.
UniProt Q07869, 239-466 limits assumed: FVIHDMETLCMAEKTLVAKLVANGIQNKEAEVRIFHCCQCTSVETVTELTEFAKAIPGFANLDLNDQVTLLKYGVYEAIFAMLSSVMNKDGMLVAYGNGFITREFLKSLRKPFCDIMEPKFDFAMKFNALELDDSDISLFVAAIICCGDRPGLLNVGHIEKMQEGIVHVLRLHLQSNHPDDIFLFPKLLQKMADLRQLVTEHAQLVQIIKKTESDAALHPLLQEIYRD
UniProt Q07869, whole entry: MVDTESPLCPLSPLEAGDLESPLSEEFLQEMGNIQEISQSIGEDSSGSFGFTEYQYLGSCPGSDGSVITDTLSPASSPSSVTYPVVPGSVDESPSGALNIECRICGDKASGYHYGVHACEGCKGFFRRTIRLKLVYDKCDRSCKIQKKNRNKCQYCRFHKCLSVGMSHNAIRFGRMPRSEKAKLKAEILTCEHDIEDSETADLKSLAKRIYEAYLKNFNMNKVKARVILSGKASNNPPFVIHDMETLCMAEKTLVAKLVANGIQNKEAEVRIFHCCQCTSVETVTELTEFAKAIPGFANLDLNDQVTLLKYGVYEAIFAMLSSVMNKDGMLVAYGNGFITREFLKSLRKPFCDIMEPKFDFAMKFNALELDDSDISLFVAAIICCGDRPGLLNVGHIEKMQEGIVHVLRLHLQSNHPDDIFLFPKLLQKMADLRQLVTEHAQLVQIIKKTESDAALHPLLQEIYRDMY
UniProt P28702, whole entry partner: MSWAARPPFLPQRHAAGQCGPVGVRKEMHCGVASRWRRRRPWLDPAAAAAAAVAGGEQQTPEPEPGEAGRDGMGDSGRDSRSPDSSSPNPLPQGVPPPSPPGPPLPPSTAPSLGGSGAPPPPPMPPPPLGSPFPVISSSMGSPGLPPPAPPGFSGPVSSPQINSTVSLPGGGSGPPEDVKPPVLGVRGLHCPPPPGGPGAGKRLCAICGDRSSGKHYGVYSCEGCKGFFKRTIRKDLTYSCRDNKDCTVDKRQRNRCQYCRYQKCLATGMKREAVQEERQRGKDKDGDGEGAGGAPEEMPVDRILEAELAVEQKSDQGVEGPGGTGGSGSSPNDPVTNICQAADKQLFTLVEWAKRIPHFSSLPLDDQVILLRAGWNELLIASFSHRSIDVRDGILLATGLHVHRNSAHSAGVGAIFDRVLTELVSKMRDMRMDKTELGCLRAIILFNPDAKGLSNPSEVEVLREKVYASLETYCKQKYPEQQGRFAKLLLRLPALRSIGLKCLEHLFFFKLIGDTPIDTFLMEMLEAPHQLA

What was measured:
[1] = biological target: full length human PPAR α (Homo sapiens, UniProt Q07869); assay: Endogeneous PPAR α agonist assay (full length human PPAR α, RXR, PPRE luciferase) in 293T cells; conditions: read-out: EC50 (μM) Step 2 Endogenous gene activity, 48 hours
Excerpt: Step 2) Endogeneous PPAR α Agonist Assay
The procedure of Step 1 was repeated except for using a firefly-luciferase DNA construct containing Renilla-luciferase construct, full length human PPAR α, RXR (retinoid X receptor) and PPRE (peroxisome proliferator-responsive element) (Sher et al., Biochemistry 32, 5598-5604, 1993; and Fleischhauer et al., Hum Genet 90, 505-510, 1993) to transform 293T cells, to conduct endogenous PPAR CL agonist assay. Each of the compounds of Examples was used in such a treatment which lasted for 48 hours, and the luciferase activity of the resulting heterodimer, a R/R (endogenous binding partner of PPAR) bound to a full length PPAR CL with the compounds, was measured in accordance with the same method of Step 1.

[2] = biological target: T1, human PPAR α (Homo sapiens, UniProt Q07869); assay: Exogeneous PPAR α agonist assay (GAL4 DNA binding domain/PPAR α ligand binding domain, luciferase) in 293T cells; parameters: Activity at 25 μM Step 1 293T cell: scale not given here
Procedure: (§1) Step 1) Exogeneous PPAR α Agonist Assay
(§2) Cross-activation assay of the compounds of Examples 1 to 134 against human PPAR α was carried out using a DNA construct of PPAR α including its ligand binding domain and GAL4 DNA binding domain (Sher et al., Biochemistry 32, 5598-5604, 1993) to analyze whether any of the compounds binds to the ligand binding domain of PPAR α expressed by the construct to affect the PPAR α activity. When the GAL4 DNA binding domainm which is fused with PPAR α ligand binding domain, binds to UAS (upstream activation sequence) of firefly-luciferase, the luciferase is expressed. Therefore, the effect of each of the compounds of Examples on PPAR α activation can be evaluated by analyzing the activation of luciferase.
(§3) Specifically, 2×10^4 of HepG2 (ATCC HB-8065) or 293T cells (ATCC CRL-1573) were aliquotted into each well of a 96-well plate and cultured for overnight at 37° C. in a CO2 incubator (culture condition: DMEM, 10% FBS and 1% antibiotics).
(§4) The transformation of PPAR α DNA was traced as follows. […] The luminescence intensities of F-luciferase and R-luciferase were measured with MicroLumat Plus (Berthord Technology).

[3] = biological target: T1, human PPAR α; assay: Exogeneous PPAR α agonist assay (GAL4 DNA binding domain/PPAR α ligand binding domain, luciferase) in HepG2 cells; conditions: read-out: EC50 (μM) Step 1 HepG2 cell, concentration at which activity increased by 50% over control
Procedure: as §1, §2, §3, §4

With `Cc1oc(-c2ccc(C(F)(F)F)cc2)nc1COc1cccc(CN(CC(=O)O)S(=O)(=O)NC(C)(C)C)c1` the EC50 [1] was 25 µM, the “Activity at 25 μM Step 1 293T cell” value ([2]; 25 μM compound, 48 hours, luciferase activity increase relative to the control) was 2 and the EC50 ([2]; read-out: EC50 (μM) Step 1 293T cell, concentration at which activity increased by 50% over control) was 0.2 µM. For the same compound, the EC50 [3] was 1 µM.
